Compounds with a hit are over-represented: about 1.2% of the library has one in this group of screens.
Yeast UUG start: yeast start codon fidelity modulation | S. cerevisiae UUG-firefly luciferase reporter, luminescence/redox ratio | activity score, % at 18.7 µM | 350,000 tested, 0.13% active;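 active = replicate mean at a twofold rise or more, about +100% in these data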;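 also: firefly luciferase made from a UUG start codon reports start codon fidelity; reporter light over untreated wells divided by growth signal over untreated wells; some hits fall short of that in this replicate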
Statin myotox sup: suppressors of simvastatin-induced myotoxicity in C2C12 myotubes | AID 602340 | rescue of ATP level, % at 7.49 µM | 330,000 tested, 0.78% active | ATP luminescence, 48 h; scaled: DMSO 0, geranylgeraniol control 100;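 active means mean ATP rescue above about 67%, or every replicate alone reaching that limit, limit read from the data, passing the limit was not always enough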;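 further: myotubes were challenged with 10 µM simvastatin during compound exposure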
miR122 inh: miR-122 inhibition in Huh7 cells. Huh7 miR-122 Renilla luciferase sensor, 48 h; neutral wells = 0, positive control = 100. AID 602342. 340,000 tested, 0.3% active. activation (reporter increase), % at 12.5 µM;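 active means mean replicate activation score at least 90 and every replicate individually at or above 90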;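 further: higher luciferase means less miR-122 activity so hits act as miR-122 inhibitors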
Cneo AK release: causes C. neoformans cell lysis. 360,000 tested, 0.2% active. adenylate kinase release luminescence, 4 h; normalised: neutral wells 0, clomiphene wells 100. lysis activity, % at 15 µM;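 active means mean lysis activity across replicates of at least 80%, whatever share of replicates individually reach that level; inactive means mean lysis activity below 80%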
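read-out = cell lysis signal | test system = log-phase Cryptococcus neoformans yeast cells | input = cells at 5 × 10^6 per mL | medium = fresh YPD growth medium | signal = luminescent adenylate kinase detection reagent | timing = 4 h at 37 °C static, read 1 h later | dosing = single dose | controls = Clomiphene as positive lysis control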
An asterisk follows results filed as active; x = not tested or not shown; [ ] = dose if it differs, or a comment.

#1 Cc1noc(C)c1S(=O)(=O)Nc1ccc2c(c1)C(=O)N([C@@H](C)CO)C[C@@H](C)[C@@H](CN(C)C(=O)Nc1ccc3c(c1)OCO3)OCCCC[C@H](C)O2
#2 Cc1ccc(C2=NOC3(CC(=O)N(c4ccccc4)C3=O)C2)cc1 (centres undefined)
#3 COc1ccc(C2=NOC3(CC(=O)N(c4ccc(F)cc4)C3=O)C2)c(OC)c1 (centres undefined)
#4 CNC[C@H]1OCCCC[C@H](C)Oc2ccc(NC(=O)Nc3ccc4c(c3)OCO4)cc2C(=O)N([C@H](C)CO)C[C@@H]1C
#5 CNC[C@@H]1OCCCC[C@@H](C)Oc2ccc(NC(=O)Nc3ccc4c(c3)OCO4)cc2C(=O)N([C@H](C)CO)C[C@@H]1C
#6 CNC[C@@H]1OCCCC[C@@H](C)Oc2ccc(NC(=O)NC(C)C)cc2C(=O)N([C@@H](C)CO)C[C@H]1C
#7 CCOc1ccccc1CN(Cc1ccco1)S(=O)(=O)c1ccc(-n2cnnn2)c(OC)c1
#8 Cc1cccc(Nc2nc(N)nc(CN3CCN(c4ccccc4F)CC3)n2)c1

screen / no.,1,2,3,4,5,6,7,8
Yeast UUG start,7.0,-14.7,-17.1,x,-1.1,x,4.4,-15.5
Statin myotox sup,x,75.8*,7.9,35.7,-0.1,x,-33.9,80.9*
miR122 inh,12.5[16.7 µM],1.1,3.5,0.4[16.7 µM],2.7[16.7 µM],4.3[16.7 µM],137.8*,-4.6
Cneo AK release,-0.9,-2.8,0.4,x,89.2*,87.8*,1.0,-9.4

2 entries from above, with two lines to a compound.
Value order: Yeast UUG start, Statin myotox sup, miR122 inh, Cneo AK release
1) Cc1noc(C)c1S(=O)(=O)Nc1ccc2c(c1)C(=O)N([C@@H](C)CO)C[C@@H](C)[C@@H](CN(C)C(=O)Nc1ccc3c(c1)OCO3)OCCCC[C@H](C)O2
  7.0, x, 12.5[16.7 µM], -0.9
2) Cc1ccc(C2=NOC3(CC(=O)N(c4ccccc4)C3=O)C2)cc1 (centres undefined)
  -14.7, 75.8*, 1.1, -2.8

The results go on:
#9 CC1CCCC(C)N1C(=O)C1CC(c2ccc(F)cc2)=NO1 (centres undefined)
#10 CC1CCN(C(=O)C2CC(c3ccc(F)cc3)=NO2)CC1 (centres undefined)
#11 COc1ccc(NC(=O)CC2C(=O)NCCN2C(=O)c2ccccc2)cc1 (centres undefined)
#12 COc1ccc(NC(=O)CC2C(=O)NCCN2C(=O)c2ccc(Cl)cc2)cc1 (centres undefined)
#13 O=C(CC1C(=O)NCCN1C(=O)c1ccc([N+](=O)[O-])cc1)Nc1ccc(F)cc1 (centres undefined)
#14 Cc1ccc(NC(=O)CC2C(=O)NCCN2C(=O)c2ccc(F)cc2)cc1 (centres undefined)
#15 CC(C)CC#Cc1cnc2c(c1)C(=O)N([C@@H](C)CO)C[C@H](C)[C@H](CN(C)Cc1ccc(C(=O)O)cc1)O2
#16 Cc1ccc(S(=O)(=O)Nc2ccc3c(c2)C(=O)N([C@H](C)CO)C[C@H](C)[C@@H](CN(C)C)OCCCC[C@H](C)O3)cc1

screen / no.,9,10,11,12,13,14,15,16
Yeast UUG start,-14.5,-15.6,2.4,-12.6,-22.9,0.5,8.2,x
Statin myotox sup,92.4*,6.6,x,100.6*,100.7*,x,-0.9,31.2
miR122 inh,-1.4,x,-4.4,-0.5,-5.7,-4.6,3.6[16.7 µM],-7.2[16.7 µM]
Cneo AK release,0.7,1.0,-0.8,-0.9,-1.3,-1.0,5.7,x

#17 CC(C)NC(=O)Nc1cccc2c1O[C@H](CN(C)C)[C@H](C)CN([C@H](C)CO)C2=O
#18 CC(C)NC(=O)Nc1cccc2c1O[C@@H](CN(C)C(=O)Nc1ccccc1)[C@@H](C)CN([C@@H](C)CO)C2=O
#19 CC(C)NC(=O)Nc1cccc2c1O[C@@H](CN(C)C)[C@@H](C)CN([C@@H](C)CO)C2=O
#20 CCO[C@H]1OC(C(=O)NCc2ccccc2)=C[C@@H](c2csc3ccccc23)[C@@H]1CCCO
#21 O=C(NCc1ccco1)c1scc2c1OCCO2
#22 CCN(CC)C(=O)c1scc2c1OCCO2
#23 O=c1c2ccccc2n(Cc2ccc(F)cc2)c(=O)n1C1CCCC1
#24 O=C(Cn1c(=O)n(Cc2ccc(F)cc2)c(=O)c2ccccc21)NCC1CCCO1 (centres undefined)

screen / no.,17,18,19,20,21,22,23,24
Yeast UUG start,x,22.4,x,x,-10.2,-3.1,-6.5,-9.1
Statin myotox sup,-7.1,10.4,9.1,x,x,119.8*,116.0*,2.4
miR122 inh,31.9[16.7 µM],15.8[16.7 µM],7.7[16.7 µM],x,2.5,-9.4,-1.4,-3.4
Cneo AK release,99.9*,103.0*,-2.6,0.1,2.6,0.0,-2.0,37.5

The final two records of the part above lead into the next.
#23 O=c1c2ccccc2n(Cc2ccc(F)cc2)c(=O)n1C1CCCC1
#24 O=C(Cn1c(=O)n(Cc2ccc(F)cc2)c(=O)c2ccccc21)NCC1CCCO1 (centres undefined)
#25 CC(C)(C)C1C/C(=C/c2ccccn2)C(=O)/C(=C/c2ccccn2)C1 (centres undefined)
#26 C(=C\c1ccccn1)/c1ccccn1
#27 N#Cc1nc(COc2ccccc2)oc1N1CCCC1
#28 N#Cc1nc(COc2ccccc2)oc1N1CCOCC1
#29 CCCCCCn1c(N2CCC(C)CC2)nc2c1c(=O)[nH]c(=O)n2C
#30 CCCCCn1c(N2CCC(C(N)=O)CC2)nc2c1c(=O)[nH]c(=O)n2C
#31 COc1ccc(N=Cc2sc(O)c3ccccc23)cc1
#32 COc1ccc(N=Cc2c(O)c3ccccc3n2C(C)=O)cc1

screen / no.,23,24,25,26,27,28,29,30,31,32
Yeast UUG start,-6.5,-9.1,-5.8,-15.7,6.3,2.6,9.6,3.9,-11.4,4.9
Statin myotox sup,116.0*,2.4,116.4*,-4.4,15.1,105.9*,8.1,107.0*,180.1*,4.8
miR122 inh,-1.4,-3.4,51.9,x,1.5,-0.3,-7.1,0.9,-2.5,6.2
Cneo AK release,-2.0,37.5,-8.1,1.9,0.0,-1.4,2.0,2.7,0.6,-0.7

(list continues)
Keys: A = Yeast UUG start; B = Statin myotox sup; C = miR122 inh; D = Cneo AK release
33) FC(F)(F)c1nc2ccccc2n2c(-c3ccc(Cl)cc3Cl)nnc12
  A: -3.4; B: 83.9*; C: -17.2; D: 0.0
34) FC(F)(F)c1nc2ccccc2n2c(-c3c(Cl)cccc3Cl)nnc12
  A: -2.8; B: 3.1; C: 0.9; D: -0.4
35) COc1ccc(S(=O)(=O)N(C)C[C@H]2Oc3c(NC(=O)Nc4ccccc4)cccc3C(=O)N([C@H](C)CO)C[C@H]2C)cc1
  A: x; B: 77.6*; C: -4.7[16.7 µM]; D: x
36) Cc1cc(C(=O)Nc2cccc3c2O[C@@H](CN(C)S(=O)(=O)c2ccccc2)[C@@H](C)CN([C@@H](C)CO)C3=O)n(C)n1
  A: 15.8; B: -35.6; C: 18.0[16.7 µM]; D: 103.9*
37) C[C@H](CO)N1C[C@H](C)[C@@H](CN(C)S(=O)(=O)c2ccccc2)Oc2c(NC(=O)Nc3cccc4ccccc34)cccc2C1=O
  A: 9.5; B: 8.1; C: 52.3[16.7 µM]; D: 102.7*
38) Cc1cc(C(=O)Nc2cccc3c2O[C@@H](CN(C)S(=O)(=O)c2ccccc2)[C@@H](C)CN([C@H](C)CO)C3=O)n(C)n1
  A: 23.5; B: -25.5; C: 33.5[16.7 µM]; D: -3.6
39) CN(C)CCCNC(=O)C[C@H]1C=C[C@H](NC(=O)Cc2cccnc2)[C@H](CO)O1
  A: -16.3; B: 0.3; C: -5.6[16.7 µM]; D: 0.7
40) OC[C@H]1[C@H](c2ccc(C#Cc3ccccc3)cc2)[C@H]2CN(Cc3cncnc3)CCCCN21
  A: 9.8; B: x; C: -4.7[16.7 µM]; D: 1.1
41) CC(C)(C)OC(=O)N1CCC(CC2CC(c3ccccc3)=NO2)(C(=O)O)CC1 (centres undefined)
  A: 11.7; B: 7.3; C: x; D: 1.8
42) CCCCCCCNC(=O)C1(CC2CC(c3ccc(Cl)cc3)=NO2)CCN(C(=O)OC(C)(C)C)CC1 (centres undefined)
  A: -9.9; B: 121.1*; C: 3.7; D: -0.6
43) O=C1C(=O)N(CCO)C(c2ccccc2)/C1=C(\O)c1ccccc1 (centres undefined)
  A: 0.4; B: 11.8; C: -2.4; D: -3.0
44) COCCCN1C(=O)C(=O)/C(=C(/O)c2ccc(C)cc2)C1c1ccccc1 (centres undefined)
  A: -16.8; B: x; C: -7.1; D: 2.8
45) COCCCN1C(=O)C(=O)/C(=C(/O)c2ccc(OC)cc2)C1c1cccc(OC)c1 (centres undefined)
  A: x; B: 125.1*; C: -4.9; D: x
46) COc1ccc(C2/C(=C(/O)c3ccccc3)C(=O)C(=O)N2CCO)cc1 (centres undefined)
  A: -7.7; B: 87.2*; C: -1.6; D: -2.5
47) C[C@@H]1CN([C@H](C)CO)C(=O)Cc2cc(NS(=O)(=O)c3ccc(Cl)cc3)ccc2O[C@@H]1CN(C)C(=O)NC1CCCCC1
  A: -0.1; B: 3.4; C: -1.6[16.7 µM]; D: -7.3
